Reference: US20240124398A1, “PHARMACEUTICALLY ACCEPTABLE SALTS OF PSILOCIN AND USES THEREOF” (priority 2021, published 2024)
Values joined by “and” are separate entries in the source; they are usually repeats but may differ in a detail not shown here. Equal values may be shown once.

Key:
[1] = Static storage for 7 days at 40° C./75% RH (XRPD and HPLC); details: for Static Storage 40° C./75% RH: HPLC: HPLC purity after 7 days at 40° C. and 75% relative humidity; for Static Storage 40° C./75% RH: XRPD: XRPD pattern after 7 days at 40° C. and 75% relative humidity
[2] = Solubility of psilocin salts in saline

| Substance | Static Storage 40° C./75% RH: HPLC [1] | Static Storage 40° C./75% RH: XRPD [1] | also measured |
| --- | --- | --- | --- |
| Psilocin succinate [Psilocin succinate SUC Pattern 1] | HPLC - 99.3% | SUC Pattern 3 |  |
| Psilocin succinate [Psilocin succinate SUC Pattern 2] | HPLC- 98.8% | SUC Pattern 3 |  |
| Psilocin succinate [Psilocin succinate SUC Pattern 4] | HPLC - 99.4% | XRPD - SUC Pattern 5 (FIG. 5) |  |
| Psilocin succinate [SUC Pattern 3] |  |  | pH at 5 hrs ([2]; Table 9, saturated solution in saline, 25° C., 5 hours, listed as Psilocin succinate SUC Pattern 3): 6.5 and 6.4; pH at 5 hrs ([2]; Table 10 (updated), saline, listed as Psilocin succinate SUC Pattern 3): 6.4 and 6.5; Solubility in Saline ([2]; summary Table 4, saline, 25° C., 5 hours): >27 mg/mL |
| Psilocin tartrate |  |  | pH at 5 hrs ([2]; Table 10 (updated), saline): 3.5 |
